Laboratory results as given in ChEMBL document CHEMBL5149996, “Structure-Based Optimization and Discovery of M3258, a Specific Inhibitor of the Immunoproteasome Subunit LMP7 (β5i)” (J Med Chem, 2021).

Amino acid sequences for entries named in this document (tags omitted). A change or cut given only in a name is not applied to a line headed by its entry.
UniProt P28074: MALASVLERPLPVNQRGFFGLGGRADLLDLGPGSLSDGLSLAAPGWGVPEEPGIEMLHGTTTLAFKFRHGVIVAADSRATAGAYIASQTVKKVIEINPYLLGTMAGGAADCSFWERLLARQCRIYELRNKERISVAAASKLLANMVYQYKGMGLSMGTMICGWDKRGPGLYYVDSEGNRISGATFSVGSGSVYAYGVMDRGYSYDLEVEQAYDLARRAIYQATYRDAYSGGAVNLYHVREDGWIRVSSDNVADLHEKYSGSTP

Target: Proteasome Macropain subunit MB1 (Homo sapiens, UniProt P28074)
Test: Inhibition of human 20S proteasome beta5 subunit using Suc-LLVY-AMC as substrate preincubated for 2 hrs followed by substrate addition and measured after 1 hr by fluorescence intensity assay

CC(C)C[C@H](NC(=O)CNC(=O)c1cc(Cl)ccc1Cl)B(O)O
IC50: 5 nM
